From PubChem BioAssay
Sampled rows, rich in hits. Any-hit rate of the full collection: about 16%.
DT40 TDP1 no CPT = qHTS for Inhibitors of human tyrosyl-DNA phosphodiesterase 1 (TDP1): qHTS in cells in absence of CPT | AID 686978, 2013 | hit rate 15% among 420,000 | DT40 Tdp1-/- hTDP1 cells, no CPT, ATP luminescence, 48 h | Potency, µM (titrated, usually from 46.2 µM), for inactives: at the top dose activity change, negative = growth inhibition, actives largely listed as inhibitors; further: potency means the concentration at half of the fitted maximal effect; on the % scale 0 is the no-effect control and ±100 the full control effect; nearly all actives have a fitted effect of over 55% in size
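Luminescent ATP content (CellTiter-Glo) served as the growth readout. Knockout chicken DT40 cells expressing human TDP1 were exposed to compounds without camptothecin for a minimum 48 hr at 37 °C.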
TDP1 block = inhibitors of human tyrosyl-DNA phosphodiesterase TDP1; Q9NUW8; recombinant TDP1, AlphaScreen DNA substrate cleavage; Potency, µM (top dose mostly 130 µM), for inactives: at the highest dose activity change, negative = inhibition, actives largely listed as inhibitors; hit rate 0.28% among 350,000; AID 485290; further: potency means the concentration at half of the fitted maximal effect; on the % scale 0 is the no-effect control and ±100 the full control effect; nearly all actives have a fitted effect of over 40% in size
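Compounds were preincubated with Tdp1 (1 nM final) for 15 min at room temperature before substrate (15 nM final) started a 5 min reaction; beads (10 ug/ml final) were then added for 10 min before AlphaScreen detection.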
uPA surface inh = inhibitors of cell surface uPA generation. cell surface uPA generation assay, qHTS. Potency, µM (titrated, usually from 38.3 µM), inactives show at the highest dose activity change, negative = inhibition, actives largely listed as inhibitors. hit rate 0.31% among 330,000. AID 540303; active means well fitted inhibition curve with a large enough effect; inconclusive means small, poorly fitted or top-dose-only effect; inactive means no such curve, though single readings can be large or run the other way; tested in mouse RAW 264.7 cells; further: potency means the concentration at half of the fitted maximal effect; on the % scale 0 is the no-effect control and ±100 the full control effect; nearly all actives have a fitted effect of over 55% in size
DT40 TDP1 CPT = DT40-hTDP1 cell growth loss with CPT; chicken DT40 Tdp1-/-;hTDP1 cells + 20 nM CPT, ATP luminescence, 48 h; Potency, µM (series often up to 46.2 µM), without a hit: at the highest dose activity change, negative = growth inhibition, actives largely listed as inhibitors; hit rate 12% among 420,000; further: potency means the concentration at half of the fitted maximal effect; on the % scale 0 is the no-effect control and ±100 the full control effect; nearly all actives have a fitted effect of over 55% in size
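Cell growth measured by CellTiter-Glo luminescence after a minimum 48 h, 37 C compound exposure with 20 nM CPT in Tdp1-knockout DT40 cells stably expressing hTDP1, seeded 400/well; qHTS titration format.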
miR-21 reporter = miR-21 reporter, rising signal | HeLa miR-21 FLuc reporter, luciferase, 48 h | Potency, µM (highest dose often 38.3 µM), for inactives: at the top dose reporter change, positive = more light | 340,000 tested, under 10 active | AID 2288; active = well fitted rising curve with a large enough effect; inconclusive = small, poorly fitted or top-dose-only effect; inactive = no such curve, though single readings can be large or run the other way;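 further: % of control where 0% means no effect; miR-21 action dims this reporter so a rising signal means less miR-21 action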
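Using DMEM plus 10% FBS, HeLa miR-21-FLuc cells are incubated with test compounds (final up to about 40uM) for 48 hours; firefly luciferase signal is then imaged following reagent-mediated lysis.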
Numbers without * were called inactive; u = inconclusive; x = not tested or not shown; ! = not confirmed by another sample; [ ] = another dose, or the depositor's remark. Unless noted, the call rests on the fitted dose curve; in most records, active means well fitted curve in the direction sought with a large enough effect; inconclusive means small, poorly fitted or top-dose-only effect, or another doubt; inactive means no such curve, though single readings can be large; an effect the other way counts as inactive or inconclusive.

SMILES	DT40 TDP1 no CPT	TDP1 block	uPA surface inh	DT40 TDP1 CPT	miR-21 reporter
O=C(NC1CCN(Cc2ccccc2)CC1)c1cccc(S(=O)(=O)Nc2ccc(SC(F)F)cc2)c1	u	4%	u	23µM*	x
Cc1cc(S(=O)(=O)NCC(C)C)ccc1OCC(=O)N1CCN(Cc2ccccc2)CC1	-65%	7%	-7%	u	13%
C[C@]1(O)CC[C@H]2[C@@H]3CCC4=CC(=O)CC[C@]4(C)[C@@]3(F)[C@@H](O)C[C@@]21C	-18%	15%	-3%	2%	x
CCCC(=O)O[C@]1(C(=O)COC(=O)CC)[C@@H](C)C[C@H]2[C@@H]3CCC4=CC(=O)C=C[C@]4(C)[C@@]3(F)[C@@H](O)C[C@@]21C	24µM*	x	x	u	x
C[C@@H]1C[C@H]2[C@@H]3CCC4=CC(=O)C=C[C@]4(C)[C@@]3(Cl)[C@@H](O)C[C@]2(C)[C@@]1(OC(=O)c1ccco1)C(=O)CCl	12µM*	x	u	16µM*	x
CN1CCc2nc(SCc3cccc(Br)c3)c(C#N)cc2C1	18µM*	5%	-2%	u	-11%
N#Cc1cc2c(nc1SCC(=O)Nc1cccc(F)c1)C1CCN2CC1	x	1%	x	x	17%
CN1CC2CN(Cc3ccccc3)S(=O)(=O)C2C1 (stereo unspecified)	3%	x	x	-9%	x
CCOc1ccc2cc(C#N)c(=O)oc2c1	x	2%	x	x	x
O=C(c1ccc2c(c1)ncn2C1CCCCC1)N1CCC2(CC1)OCCO2	4.6µM*	3%	-10%	6.5µM*	11%
C=C(C)C(N)=O	x	16%	x	x	x
NC(Cc1ccc(C(F)(F)F)cc1)c1csc(Nc2nncc3ccccc23)n1 (stereo unspecified)	21µM*	x	x	13µM*	x
Nc1ccc(CC(N)c2csc(Nc3ncccn3)n2)cc1 (stereo unspecified)	10µM*	x	x	18µM*	x
NC(Cc1ccc(Cl)cc1)c1csc(Nc2ncccn2)n1 (stereo unspecified)	4.1µM*	x	x	3.7µM*	x
NC(Cc1ccc(F)cc1)c1csc(Nc2ncccn2)n1 (stereo unspecified)	5.8µM*	x	x	7.3µM*	x
Cc1cc(OC(=O)N(C)C)nc(-c2ccc(C)c(Cl)c2)n1	-26%	1%	-6%	0%	-30%
CC(N)C(=O)NC1C2C(=C(O)CC(O)C2O)C(=O)OC1(C)C(Cl)Cl (stereo unspecified)	0.16µM*	x	-9%	0.18µM*	x
CN1CCC(O)(c2cccs2)C(C(=O)c2cccs2)C1 (stereo unspecified)	3.7µM*	1%	-2%	1.3µM*	-2%
CN1CCC(O)(c2ccc(F)cc2)C(C(=O)c2ccc(F)cc2)C1 (stereo unspecified)	u	3%	x	u	x
O=C1C2CCN(CC2)C12CC2c1ccc(C(F)(F)F)cc1 (stereo unspecified)	-24%	5%	-1%	26%	-16%
CC=CC(C)=CC(C)C(=O)CC(O)CC1CC(=O)NC(=O)C1 (stereo unspecified)	5.8µM*	x	x	8.2µM*	x
CC1OC(=O)C(C(C)C)NC(=O)C(C(C)C)OC(=O)C(C(C)C)NC(=O)C(C)OC(=O)C(C(C)C)NC(=O)C(C(C)C)OC(=O)C(C(C)C)NC(=O)C(C)OC(=O)C(C(C)C)NC(=O)C(C(C)C)OC(=O)C(C(C)C)NC1=O (stereo unspecified)	0.22µM*	1%	x	0.18µM*	x
COC(=O)COc1ccc(C[C@@H](C)NC[C@H](O)c2cccc(Cl)c2)cc1	x	8%	x	x	x
Cc1ccc(N2C(=O)NC(=O)/C(=C/c3ccc(-c4ccc(C(=O)O)c(Cl)c4)o3)C2=O)cc1	6%	20µM*	8%	1%	1%
COC(=O)COc1ccc(Cl)cc1Cl	12%	9%[56.1 µM]	x	5%	x

(further entries)
SMILES	DT40 TDP1 no CPT	TDP1 block	uPA surface inh	DT40 TDP1 CPT	miR-21 reporter
CN(C)c1nc(OCCNC(=O)COc2ccc(Cl)cc2Cl)nc(N2CCCCC2)n1	12µM*	2%	x	9.2µM*	-5%
O=C(CCCN1CCC2(CC1)C(=O)N(Cc1cccc(F)c1)CN2c1ccccc1)c1ccc(F)cc1	15µM*	13%	x	30µM*	x
CCCN1CCCC2Cc3[nH]ncc3CC21 (stereo unspecified)	x	0.28µM*!	x	x	x
NC(=O)[C@@H]1CCCN1C(=O)[C@H](Cc1ccccc1)NC(=O)[C@@H]1CCCN1C(=O)[C@@H](N)Cc1ccc(O)cc1	14%[4.12 µM]	6%	x	-4%[4.12 µM]	x
Cc1ccc([C@@H]2CC(=O)[C@@H]3CN(S(=O)(=O)c4ccccc4C)[C@H](c4ccc(Cl)cc4)C[C@@H]3N2S(=O)(=O)c2ccc(C)cc2)cc1	26µM*	x	x	u	x
COC(=O)C1=C(c2ccc(-c3ccccc3)c(F)c2)C[C@@H]2CC[C@H]1N2C(=O)N1CCCC1	1.2µM*	0%	-27%	1.6µM*	x
COC(=O)C1=C(c2ccc(-c3ccccc3)c(F)c2)C[C@@H]2CC[C@H]1N2C(=O)N1CCc2cc(OC)c(OC)cc2C1	u	5%	u	u	x
COC(=O)C1=C(c2ccc(-c3ccccc3)c(F)c2)C[C@@H]2CC[C@H]1N2C(=O)N1CCOCC1	1.3µM*	4%	-30%	1.2µM*	x
COC(=O)C1=C(c2ccc(-c3ccccc3)c(F)c2)C[C@@H]2CC[C@H]1N2C(=O)N1CCCCC1	1.3µM*	0%	-9%	2.3µM*	x
CC(C)C[C@H](NC(=O)[C@@H]1CCCN1C(=O)[C@@H](N)Cc1ccc(O)cc1)C(=O)NCC(N)=O	-6%	6%	-2%	-4%	-1%
CC(=O)OC1C2CCCC1C(N1CCCC1)CC2 (stereo unspecified)	5%	-7%	7%	21%	-4%
Cc1ccc(NC(=O)c2cc(S(=O)(=O)N3CCOCC3)c(Cl)cc2Cl)cc1	18µM*	-9%[12.3 µM]	x	u	u
COC(=O)C1=C(c2cc3ccccc3s2)C[C@@H]2CC[C@H]1N2C(=O)NCc1ccccc1	u	x	-13%	u	x
CCCNC(=O)N1[C@H]2CC[C@@H]1C(C(=O)OC)=C(c1cc3ccccc3s1)C2	x	x	0%	12µM*	x
COC(=O)C1=C(c2cc3ccccc3s2)C[C@@H]2CC[C@H]1N2C(=O)NCCCOC(C)C	18µM*	x	17%	18µM*	x
Cc1cc2c(s1)Nc1ccccc1N=C2N1CCN(C)CC1	u	6%	13%	u	3%
C=CCC[C@H](Cc1ccc(F)cc1)C(=O)OC[C@@H](Cc1c[nH]c2ccccc12)NC(=O)[C@@H](CC=C)CC(=O)N(CCO)Cc1ccccc1	u	3%	-14%	u	x
COC(=O)C1=C(c2ccc(F)cc2F)C[C@@H]2CC[C@H]1N2C(=O)NCCOc1ccc(OC)cc1	u	0%	8%	u	x

5 structures from above, sorted by length of the SMILES, low to high:
SMILES	DT40 TDP1 no CPT	TDP1 block	uPA surface inh	DT40 TDP1 CPT	miR-21 reporter
CCOc1ccc2cc(C#N)c(=O)oc2c1	x	2%	x	x	x
CN1CCc2nc(SCc3cccc(Br)c3)c(C#N)cc2C1	18µM*	5%	-2%	u	-11%
NC(=O)[C@@H]1CCCN1C(=O)[C@H](Cc1ccccc1)NC(=O)[C@@H]1CCCN1C(=O)[C@@H](N)Cc1ccc(O)cc1	14%[4.12 µM]	6%	x	-4%[4.12 µM]	x
Cc1ccc([C@@H]2CC(=O)[C@@H]3CN(S(=O)(=O)c4ccccc4C)[C@H](c4ccc(Cl)cc4)C[C@@H]3N2S(=O)(=O)c2ccc(C)cc2)cc1	26µM*	x	x	u	x
CC1OC(=O)C(C(C)C)NC(=O)C(C(C)C)OC(=O)C(C(C)C)NC(=O)C(C)OC(=O)C(C(C)C)NC(=O)C(C(C)C)OC(=O)C(C(C)C)NC(=O)C(C)OC(=O)C(C(C)C)NC(=O)C(C(C)C)OC(=O)C(C(C)C)NC1=O (stereo unspecified)	0.22µM*	1%	x	0.18µM*	x
